Measurements reported in PubChem BioAssay (Tox21).
Where “and” joins values, the source holds several entries; their conditions need not be identical. Equal entries are not always repeated. Only a part is listed here, and it is no random draw. Results filed as inconclusive are left out. Calls of active or inactive are those of the source. Unless noted, calls come from the whole dose curve; as a rule, active = well fitted cell-killing curve with a large enough effect in the repeat runs; inconclusive = weak or mixed curves, or effect the other way; inactive = flat fitted curve, though single readings scatter.

Amino acid sequences for entries named in this document (tags omitted).
UniProt P34981, whole entry: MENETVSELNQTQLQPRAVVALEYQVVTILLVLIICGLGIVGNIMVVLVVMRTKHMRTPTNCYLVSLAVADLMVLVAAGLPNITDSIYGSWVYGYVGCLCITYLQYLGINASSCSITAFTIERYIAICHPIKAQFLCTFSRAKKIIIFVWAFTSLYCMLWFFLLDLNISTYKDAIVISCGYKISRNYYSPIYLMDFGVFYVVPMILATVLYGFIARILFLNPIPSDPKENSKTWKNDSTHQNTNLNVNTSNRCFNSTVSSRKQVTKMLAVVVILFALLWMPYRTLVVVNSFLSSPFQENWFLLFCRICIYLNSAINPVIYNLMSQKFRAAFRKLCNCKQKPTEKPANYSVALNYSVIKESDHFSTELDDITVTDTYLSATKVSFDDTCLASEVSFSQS

System: not listed separately
Experiment: qHTS assay to identify small molecule agonists of the TGF-beta/Smad signaling pathway - cell viability counter screen (AID 1346829); note: top concentration of the series differs between compounds; nearly all actives have a fitted effect of over 45% in size
Conditions: SBE-bla HEK293T viability, CellTiter-Glo luminescence, 5 h; at 76.8 µM (top of the series) unless noted
Outline: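 CellTiter-Glo luminescence readout; SBE-bla HEK 293T cells, overnight plating, compound 5 hr at 37 C/5% CO2, then bla substrate 2 hr RT, then CellTiter-Glo 30 min RT.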
% is set by controls: 0 for no effect and ±100 for the full control effect.

Structure (SMILES)	activity change, negative = cytotoxicity
O=[N+]([O-])c1ccccc1[N+](=O)[O-]	inactive: -4.3% and inactive: 16.2%
CCOP(=O)(Cl)Cl	inactive: 1.2% and inactive: 0.0165%
CCOP(=S)(Cl)OCC	inactive: -5.13%
CCC(=O)N(c1ccccc1)C1CCNCC1	inactive: -4.96% [at 35.3 µM]
CCOC(=O)N1CCC(=O)CC1	inactive: 1.25% [at 35.3 µM]
ClCCOP(OCCCl)OCCCl	inactive: -1.71% and inactive: 2.31%
CC(C)OP(OC(C)C)OC(C)C	inactive: 10.9%
ClCCNCCCl	inactive: 11.6%

System: not listed separately
Experiment: qHTS assay to identify small molecule agonists of the TGF-beta/Smad signaling pathway (AID 1346859; active = well fitted activation curve with a large enough effect in the signal ratio in the repeat runs, not every such curve was filed as active; the % refers to the signal ratio)
Conditions: SBE-bla HEK293T, TGF-beta/Smad beta-lactamase reporter, 5 h; at 76.8 µM (top of the series) unless noted
Outline: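 Reporter line: HEK 293T with stably integrated SBE-controlled beta-lactamase. Compound exposure lasts 5 hr at 37 C and 5% CO2; substrate loading follows for 2 hr at room temperature, with emission read at 460 and 530 nm.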

Structure (SMILES)	activation
CCOP(=O)(Cl)Cl	inactive: 1.96% and inactive: 2.01%
CCOP(=S)(Cl)OCC	inactive: 0.19%
CCC(=O)N(c1ccccc1)C1CCNCC1	inactive: 1.2% [at 35.3 µM]
CCOC(=O)N1CCC(=O)CC1	inactive: 0.986% [at 35.3 µM]
ClCCOP(OCCCl)OCCCl	inactive: 2.06% and inactive: 1.81%
CC(C)OP(OC(C)C)OC(C)C	inactive: -0.428%
ClCCNCCCl	inactive: 1.66%

Target: Thyrotropin-releasing hormone receptor (Homo sapiens) (UniProt P34981)
Experiment: qHTS assay to identify small molecule antagonists of the thyrotropin-releasing hormone receptor (TRHR) signaling pathway (AID 1346877; active = well fitted inhibition curve with a large enough effect in the repeat runs, not every such curve was filed as active)
Conditions: TRHR-HEK293, TRH-induced calcium fluorescence, antagonist mode; at 51.3 µM (top of the series) unless noted

Structure (SMILES)	activity, negative = inhibition
O=[N+]([O-])c1ccccc1[N+](=O)[O-]	inactive: -2.33% and inactive: 0.543%
CCOP(=O)(Cl)Cl	inactive: 1.18% and inactive: -0.804%
CCOP(=S)(Cl)OCC	inactive: -4.37%
CCOC(=O)N1CCC(=O)CC1	inactive: 1.47% [at 23.6 µM]
ClCCOP(OCCCl)OCCCl	inactive: 2.93% and inactive: 2.46%
CC(C)OP(OC(C)C)OC(C)C	inactive: -1.6%

Target: Thyrotropin-releasing hormone receptor (Homo sapiens) (UniProt P34981)
Experiment: qHTS assay to identify small molecule agonists of the thyrotropin-releasing hormone receptor (TRHR) signaling pathway (AID 1346891; calls by dose curve;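 note: HEK293 cells expressing TRHR with calcium dye readout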)
Conditions: TRHR-HEK293 calcium fluorescence, agonist mode; at 57.6 µM (top of the series) unless noted

Structure (SMILES)	activation
O=[N+]([O-])c1ccccc1[N+](=O)[O-]	inactive: 0.219% and inactive: -0.0652%
CCOP(=O)(Cl)Cl	inactive: -0.501% and inactive: -0.527%
CCOP(=S)(Cl)OCC	inactive: -0.182%
CCOC(=O)N1CCC(=O)CC1	inactive: -0.0158% [at 26.5 µM]
ClCCOP(OCCCl)OCCCl	inactive: -0.127% and inactive: -0.639%
CC(C)OP(OC(C)C)OC(C)C	inactive: -0.0963%
